Data from patent US12194093B2, “Dosing parameters for CD47 targeting therapies to hematologic malignancies” (The Board of Trustees of the Leland Stanford Junior …, priority 2017, dated 2025).

Target: T1, CD47 (Homo sapiens, UniProt Q08722)
T1 construct: Patient peripheral blood and bone marrow aspirates are collected at scheduled time points; endogenous in cells; host or cells: patient peripheral blood and bone marrow aspirate cells (red blood cells, white blood cells, leukemic blasts)
Assay: CD47 receptor occupancy assay on patient blood and bone marrow
Type: in vivo

## Hu5F9-G4: a humanized anti-CD47 antibody
1 mg/kg at day 1 and day 4, 15 mg/kg at day 8
  receptor occupancy, CD45+ peripheral blood and bone marrow: nearly complete receptor occupancy
Two Cohort 3 patients with biologic response, 10 mg/kg twice weekly
  CD47 receptor occupancy on leukemic bone marrow cells: 50-60%
